Test results published in EP1388586A2, “Identification of broadly reactive DR restricted epitopes” (priority 1998, dated 1999).
pIC50: −log10 of the molar value. Where two headings read alike, the source gives them in different places. One block for each compound: values may come before it.

By UniProt entry, the sequences of proteins in these tests, tags left out. Residues count along the entry.
UniProt Q30154, 30-266: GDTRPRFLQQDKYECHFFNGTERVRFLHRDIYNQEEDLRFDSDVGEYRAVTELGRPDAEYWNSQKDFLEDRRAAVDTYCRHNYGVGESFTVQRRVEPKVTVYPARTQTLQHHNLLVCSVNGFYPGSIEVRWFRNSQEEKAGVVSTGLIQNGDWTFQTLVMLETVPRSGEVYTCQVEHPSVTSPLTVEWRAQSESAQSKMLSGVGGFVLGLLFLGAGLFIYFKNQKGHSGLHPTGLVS

How the values were obtained:
DRB1*1101 (DR5w11) = target: T1, DRB1*1101 (DR5w11) (Homo sapiens, UniProt P01903+P01911, A100R/A169T/A87E/I96F/K41T/L162R/M171V/P40S/Q125H/Q178H/Q39Y/Q99D/R42S/S66Y/T262R/V115G/W38E); experiment: Class II peptide-binding assay, DR5w11;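 note: competition by unlabeled test peptide against iodinated probe peptide binding to affinity-purified HLA-DR, class II amount titrated beforehand, half-maximal inhibitory concentration read as approximate Kd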
T1 construct: used as sources of human HLA class II molecules; endogenous in cells; host or cells: SWEIG (EBV-transformed homozygous B cell line)

DRB1*0401 (DR4w4) = target: T2, DRB1*0401 (DR4w4) (Homo sapiens, UniProt P01903+P01911, A100K/A169T/F76Y/I96L/K127E/L162R/M171V/N62H/P40V/Q125Y/R42H/S133A/S149N/S66Y/V115G/V209L/W38E); experiment: Class II peptide-binding assay, DR4w4; conditions: read-out: DR4w4 nM (In IC50 Format); purified HLA DR4w4;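 note: unlabeled test peptides compete with a radiolabeled probe peptide for binding to affinity-purified HLA-DR, with DR amount titrated to capture a small fraction of label, IC50 approximating Kd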
T2 construct: used as sources of human HLA class II molecules; endogenous in cells; host or cells: PREISS (EBV-transformed homozygous B cell line)

DRB5*0101 (DR2w2a) = target: T3, DRB5*0101 (DR2w2a) (Homo sapiens, UniProt P01903+Q30154); experiment: Class II peptide-binding assay, DR2w2a (DR2w2B2);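 note: competitive binding assay: unlabeled peptide inhibiting binding of a radiolabeled probe peptide to purified DR molecules at pH 7.0, IC50 approximating Kd, lower means stronger binding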
T3 construct: used as sources of human HLA class II molecules; endogenous in cells; host or cells: GM3107 (EBV-transformed homozygous B cell line)

DRB1*0701 (DR7) = DRB1*0701 (DR7) (Homo sapiens, UniProt P01903+P01911, A100R/A102G/A103Q/D57E/D86V/E43K/F76Y/K127E/L162R/M171V/P40G/Q125H/Q99D/R33Q/R42Y/R54Q/S133A/S66F/T210M/V115G/Y107V/Y59L/Y89S); experiment: Class II peptide-binding assay, DR7; conditions: Table VIII;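 note: unlabeled peptides compete with an iodinated probe peptide for binding to affinity-purified HLA-DR at neutral pH, DR amount titered to bind a small tracer fraction, IC50 approximating Kd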
DRB1*1501 (DR2w2b) = target: T4, DRB1*1501 (DR2w2b) (Homo sapiens, UniProt P01903+P01911); experiment: Class II peptide-binding assay, DR2w2b (DR2w2B1); conditions: read-out: In IC50 Format DR2w2β1; Table VIII
T4 construct: expressed in transfected cells; host or cells: L466.1 transfected fibroblasts

[1] = read-out: DR5w11 nM (In IC50 Format), purified HLA DR5w11

pIC50 (DRB1*0401 (DR4w4)): 8.46
Compound: CC(C)C[C@H](NC(=O)[C@@H](NC(=O)[C@@H](NC(=O)[C@H](CCC(N)=O)NC(=O)[C@H](Cc1ccccc1)NC(=O)[C@H](CCC(N)=O)NC(=O)[C@H](Cc1ccccc1)NC(=O)[C@H](CCCNC(=N)N)NC(=O)[C@H](C)NC(=O)[C@@H](N)Cc1ccc(O)cc1)[C@@H](C)O)[C@@H](C)O)C(=O)N[C@@H](CCCCN)C(=O)N[C@@H](C)C(=O)N[C@@H](CCCCN)C(=O)N[C@H](C(N)=O)[C@@H](C)O [Peptide 717.46]

pIC50 (DRB1*1101 (DR5w11); [1]): 7.08
Compound: CC(C)C[C@H](NC(=O)[C@@H](NC(=O)[C@@H](NC(=O)[C@H](CCC(N)=O)NC(=O)[C@H](CO)NC(=O)[C@H](CCC(N)=O)NC(=O)[C@H](Cc1ccccc1)NC(=O)[C@H](CCCNC(=N)N)NC(=O)[C@H](C)NC(=O)[C@@H](N)Cc1ccc(O)cc1)[C@@H](C)O)[C@@H](C)O)C(=O)N[C@@H](CCCCN)C(=O)N[C@@H](C)C(=O)N[C@@H](CCC(=O)O)C(=O)N[C@H](C(N)=O)[C@@H](C)O [Peptide 717.26]

The remaining lines, values behind:

Compound: CC[C@H](C)[C@H](NC(=O)[C@H](CCCCN)NC(=O)[C@H](CC(C)C)NC(=O)[C@@H](NC(=O)[C@@H](NC(=O)[C@H](CCC(N)=O)NC(=O)[C@H](CCCNC(=N)N)NC(=O)[C@H](CCC(N)=O)NC(=O)[C@H](Cc1ccccc1)NC(=O)[C@H](CCCNC(=N)N)NC(=O)[C@H](C)NC(=O)[C@@H](N)Cc1ccc(O)cc1)[C@@H](C)O)[C@@H](C)O)C(=O)N[C@@H](C)C(=O)N[C@H](C(=O)O)[C@@H](C)O [Peptide 716.01]
pIC50 (DRB1*1101 (DR5w11); [1]): 7.08

Compound: CC[C@H](C)[C@H](NC(=O)[C@H](CO)NC(=O)[C@H](CC(=O)O)NC(=O)[C@@H](N)CCC(=O)O)C(=O)N[C@@H](CC(C)C)C(=O)NCC(=O)N[C@@H](CC(=O)O)C(=O)N1CCC[C@H]1C(=O)N[C@@H](CCCCN)C(=O)N[C@@H](CCCCN)C(=O)N[C@@H](CC(C)C)C(=O)N[C@@H](CC(C)C)C(=O)N[C@H](C(=O)N[C@@H](CCC(N)=O)C(=O)N[C@@H](Cc1c[nH]cn1)C(=O)O)[C@@H](C)O [Peptide 39.0407]
pIC50 (DRB5*0101 (DR2w2a); read-out: In IC50 Format DR2w2β2, Table VIII): < 4.70
pIC50 (DRB1*0701 (DR7); read-out: In IC50 Format DR7): < 4.75
pIC50 (DRB1*1101 (DR5w11); read-out: In IC50 Format DR5w11, Table VIII): < 4.60
pIC50 (DRB1*1501 (DR2w2b)): < 4.82

Compound: CC(C)C[C@H](NC(=O)[C@H](CCCNC(=N)N)NC(=O)[C@H](Cc1ccccc1)NC(=O)CN)C(=O)NCC(=O)N[C@@H](Cc1ccccc1)C(=O)N[C@@H](CC(C)C)C(=O)N[C@@H](Cc1c[nH]cn1)C(=O)N[C@@H](CO)C(=O)NCC(=O)N[C@H](C(=O)N[C@@H](C)C(=O)N[C@@H](CCCCN)C(=O)N[C@@H](CO)C(=O)N[C@H](C(=O)O)C(C)C)[C@@H](C)O [Peptide 39.0307]
pIC50 (DRB1*0701 (DR7); read-out: In IC50 Format DR7 nM, page 2): 7.16

Compound: GIEVVEVVPISHLYI [Peptide 39.0284]
pIC50 (DRB5*0101 (DR2w2a); read-out: In IC50 Format DR2w2B2): 4.65

Compound: CC[C@H](C)[C@H](NC(=O)[C@H](CC(C)C)NC(=O)[C@H](C)NC(=O)[C@@H](N)CC(C)C)C(=O)N[C@@H](Cc1c[nH]cn1)C(=O)N[C@@H](Cc1c[nH]cn1)C(=O)N[C@@H](CC(N)=O)C(=O)N[C@H](C(=O)N[C@@H](Cc1c[nH]cn1)C(=O)N[C@@H](CC(C)C)C(=O)N[C@@H](CS)C(=O)N[C@@H](Cc1ccccc1)C(=O)N[C@H](C(=O)N[C@@H](Cc1c[nH]cn1)C(=O)N[C@H](C(=O)O)[C@@H](C)O)C(C)C)[C@@H](C)O [Peptide 39.0352]
pIC50 (DRB5*0101 (DR2w2a); read-out: In IC50 Format DR2w2B2 nM, Table VIII, values in parentheses read as lower bounds): 4.65
